Source: patent US20260028338A1, “HETEROBIFUNCTIONAL COMPOUNDS AND METHODS OF TREATING DISEASE” (Halda Therapeutics OpCo, Inc., priority 2023, published 2026)
pIC50, pKd: −log10 of the molar value.

Legend:
[1] = target: His-tagged BRD4 BD1 (46-168) (Homo sapiens, UniProt O60885); experiment: AlphaLISA competition assay, BRD4 BD1; settings: BRD4-BD1, AlphaLISA competition with biotinylated histone H4K5/8/12/16(Ac) peptide, 10 nM
Procedure: (§1) Exemplary compounds were tested for ability to bind to bromodomain-containing protein 4 (BRD4).
(§2) Compounds were tested using a developed AlphaLISA competition assay. Briefly, His-tagged BRD4 BD1 (46-168) and biotinylated histone H4K5/8/12/16(Ac) peptide (ANASPEC, AS-64989-1) were incubated in 20 mM HEPES pH 7.5, 100 mM NaCl, 0.5 mM TCEP, 0.1% BSA, 0.02% CHAPS at a final concentration of 10 nM. Test compounds were serially diluted ten times in the same buffer and were added to the BRD4-peptide mixture for 1 h incubation at room temperature. Following incubation, Streptavidin AlphaLISA acceptor beads (PerkinElmer, AL125M) were added to BRD4-peptide-compound samples to a final concentration of 0.01 mg/mL for a 0.5 h incubation at room temperature in the dark. Following incubation, the same amount of Nickel Chelate Alpha donor beads (PerkinElmer, AS101M) were added to the samples for a final 1 h incubation. The AlphaLISA signals were measured using an EnVision plate reader (PerkinElmer). The data were uploaded to Screening Ultra (Dotmatics) to determine the half-maximal inhibitory concentration (IC50) for each test compound.

[2] = system: Farage cell line; experiment: Cellular growth inhibition assay, Farage cells (CellTiter-Glo); settings: Farage cell line (DLBCL), 72 hours, CellTiter-Glo 2.0
Procedure: Exemplary compounds were tested for ability to inhibit the proliferation of Su-DHL-4 and Farage cells. Su-DHL-4 and Farage cells are commercially available diffuse large B cell lymphoma cell lines (DLBCL).
Su-DHL-4 and Farage cells were purchased from American Type Cell Culture (ATCC Cat #CRL-2957/CRL-2630) and then seeded on poly-D-lysine coated, black clear-bottom 384-well plates at 3000/well in 25 μL Roswell Park Memorial Institute media (RPMI-1640) supplemented with 10% w/w Fetal bovine serum (FBS) and 1% w/w Pen-Strep. Pen-Strep is a commercially available mixture of penicillin G and streptomycin, which is used in mammalian cell culture media to prevent bacterial contamination. Roswell Park Memorial Institute media (RPMI-1640) supplemented with 10% w/w fetal bovine serum (FBS), and 1% w/w Pen-Strep is herein referred to as Treatment Medium. […]
At the end of the treatment duration, cell viability was quantified with CellTiter-Glo 2.0 reagent (Promega Cat #G9243). […] Following incubation, the plates were spun at 3000×g for 30 seconds, then sealed with an optical adhesive cover, and luminescence readings were measured with an EnVision Plate Reader (Perkin Elmer).
(§3) Data was normalized using zero luminescence for baseline. […]

[3] = target: His-tagged BRD4 BD2 (333-460) (Homo sapiens, UniProt O60885); experiment: AlphaLISA competition assay, BRD4 BD2; settings: BRD4-BD2, AlphaLISA competition with biotinylated histone H4K5/8/12/16(Ac) peptide, 20 nM
Procedure: as §1, §2
The same assay was developed for His-tagged BRD4 BD2 (333-460) and biotinylated histone H4K5/8/12/16(Ac) peptide at a final concentration of 20 nM.

[4] = system: T-Rex 293 cell line SC cells lacking increased expression of BCL6 protein; experiment: Cellular growth inhibition assay, T-Rex 293 SC cells without doxycycline (CellTiter-Glo); settings: T-Rex 293 SC cells not exposed to doxycycline (no increased BCL6 expression), 72 hours, CellTiter-Glo 2.0
Procedure: (§4) Exemplary compounds were tested for ability to inhibit the proliferation of the following types of cells: (i) a T-Rex 293 cell line having increased expression of BCL6 protein due to exposure of doxycycline and (ii) a T-Rex 293 cell line lacking increased expression of BCL6 protein.
(§5) The following types of cells were prepared for this experiment: (i) a T-Rex 293 cell line having increased expression of BCL6 protein due to exposure to doxycycline and (ii) a T-Rex 293 cell line lacking increased expression of BCL6 protein. Ability of the test compounds to inhibit proliferation of the foregoing cell types was evaluated according to the procedures set forth below.
(§6) The doxycycline-inducible BCL6 protein expressing cell line was established using the following protocol: T-Rex 293 cells were purchased from Invitrogen (Cat #R71007) and transfected using Lipofectamine 2000 with the wild-type BCL6 protein sequence cloned into the pcDNA4/TO vector. […] Clones were analyzed for expression of BCL6 protein in the presence and absence of 10 ng/mL doxycycline (Sigma Cat #D9891), and a single doxycycline-inducible clone (hereinafter “SC”) was selected for use in downstream assays. […]
(§7) At the end of the treatment duration, cell viability was quantified with CellTiter-Glo 2.0 reagent (Promega Cat #G9243). […]
as §3

[5] = target: biotinylated BCL6 (5-129) (Homo sapiens, UniProt P41182); experiment: SPR assay for binding affinity to BCL6; settings: Biacore 8K, 25° C., immobilized biotinylated BCL6 (5-129)
Procedure: Exemplary compounds were tested for ability to bind to B-cell lymphoma 6 (BCL6) protein.
Binding studies by surface plasmon resonance (SPR) were performed using a Biacore 8K (Cytiva) instrument at 25° C. Briefly, biotinylated BCL6 (5-129) was diluted in 10 mM HEPES pH 7.4, 150 mM NaCl, 0.05% Surfactant P20, 0.5 mM TCEP, 3% DMSO to 1-5 μg/mL and was immobilized on an SA sensor chip (Cytiva, BR100032), resulting in surface densities at 1000-3000 resonance units (RUs). Test compounds were serially diluted five times in the same buffer and were injected to the immobilized surface. Kinetic determination experiments were performed using single-cycle kinetics with 110-120 s contact time, 1000-4000 s dissociation time, 30 μL/min flow rate. Binding data were analyzed by using Biacore insight evaluation software to determine KD values for test compounds.

[6] = system: T-Rex 293 cell line SC cells having increased expression of BCL6 protein; experiment: Cellular growth inhibition assay, T-Rex 293 SC cells with doxycycline (CellTiter-Glo); settings: T-Rex 293 SC cells with 10 ng/mL doxycycline (increased BCL6 expression), 72 hours, CellTiter-Glo 2.0
Procedure: as §4, §5, §6, §7, §3

| pIC50 [1] | pIC50 [3] | pKd [5] | Structure (SMILES) | GI50 [2] [nM] | GI50 [4] [nM] | GI50 [6] [nM] |
| --- | --- | --- | --- | --- | --- | --- |
| > 8.30 | > 8.30 | 8.00 to 9.00 | CNC(=O)COc1cc2cc(Nc3nc(N4CCC(CN5CCN(CC[C@H]6C[C@H](Oc7ccc(C(C)(C)O)cc7-c7cn(C)c(=O)c8[nH]ccc78)C6)CC5)CC4)ncc3Cl)ccc2n(C)c1=O | < 500 | < 500 | < 500 |
| > 8.30 | > 8.30 | 8.00 to 9.00 | CNC(=O)COc1cc2cc(Nc3nc(N4CCC(CN5CCCC6(C5)CN(C[C@H]5C[C@H](Oc7ccc(C(C)(C)O)cc7-c7cn(C)c(=O)c8[nH]ccc78)C5)C6)CC4)ncc3Cl)ccc2n(C)c1=O | < 500 | < 500 | < 500 |
